The target of this experiment is acetylcholinesterase (AChE) (Homo sapiens, UniProt P22303). The experiment is described as follows: AChE inhibition assay (modified Ellman's method). The class given is biochemical. The method, then:
The inhibitory effects of all synthesized derivatives on AChE activities were measured using a modified Ellman’s method. This experimental study used DTNB (5,5′-dithio-bis(2-nitro-benzoic)acid) and AChI as the […]. The tested compounds (10 µL; […]) were mixed with AChE (50 µL; 38 U) solution and incubated for 10 min at 25 °C. DTNB (50 µL; 0.3 mM) was then added. The transfer of AChI (200 µL; 50 mM Tris/HCl buffer pH = 8) initiated the reaction. A spectrophotometer recorded the hydrolysis of AChI by the formation of yellow 5-thio-2-nitrobenzoate anions as a result of the reaction of DTNB with thiocholine at a wavelength of 412 nm. […] The given formula was used to calculate the (%) inhibition: Inhibition %=Control−Test/Control×100
IC50 values were calculated using data from GraphPad Prism 5 software.
(In general: In Ellman's method for cholinesterases, released thiocholine reacts with DTNB.)

Sequences of proteins named here, by UniProt entry; tags and fusion partners are left off. Residues count along the entry.
UniProt P22303, 32-614: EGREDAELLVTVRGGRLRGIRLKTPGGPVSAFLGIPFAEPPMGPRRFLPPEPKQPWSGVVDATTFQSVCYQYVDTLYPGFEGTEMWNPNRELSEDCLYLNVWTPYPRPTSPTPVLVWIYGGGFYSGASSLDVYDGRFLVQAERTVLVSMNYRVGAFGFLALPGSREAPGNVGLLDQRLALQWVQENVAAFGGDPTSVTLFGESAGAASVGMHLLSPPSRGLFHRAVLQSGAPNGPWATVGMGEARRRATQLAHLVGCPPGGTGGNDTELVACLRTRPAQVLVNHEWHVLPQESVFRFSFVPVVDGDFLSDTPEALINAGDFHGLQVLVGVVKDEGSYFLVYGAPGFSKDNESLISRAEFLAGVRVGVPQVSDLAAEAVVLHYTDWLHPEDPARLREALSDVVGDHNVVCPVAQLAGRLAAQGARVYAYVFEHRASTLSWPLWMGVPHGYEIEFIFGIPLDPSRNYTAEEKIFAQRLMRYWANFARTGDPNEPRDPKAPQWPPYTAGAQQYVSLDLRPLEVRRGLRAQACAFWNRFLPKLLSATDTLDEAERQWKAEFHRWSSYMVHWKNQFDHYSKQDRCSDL

The results in this text go back to paper PMC10459521, “Unfolding the Antibacterial Activity and Acetylcholinesterase Inhibition Potential of Benzofuran-Triazole Hybrids: Synthesis, Antibacterial, Acetylcholinesterase Inhibition, and Molecular Docking Studies” (Molecules, 2023).

For `CNC(=O)Oc1ccc2c(c1)[C@]1(C)CCN(C)[C@@H]1N2C` [Eserine, eserine, reference compound], the “Inhibition % (0.5 mM)” value is listed as 93.20 ± 1.15%.
